Binding of CDR-mutated scFvs to a peptide of the spike HR2 region

All variants were tested on one target, the spike HR2 peptide PDVDLGDISGINAS (SARS-CoV-2).

Parent: Ab-14, a human scFv built as VH, a 15-residue (Gly4Ser)3 linker, VL. Only the CDRs of the light chain vary.
VH: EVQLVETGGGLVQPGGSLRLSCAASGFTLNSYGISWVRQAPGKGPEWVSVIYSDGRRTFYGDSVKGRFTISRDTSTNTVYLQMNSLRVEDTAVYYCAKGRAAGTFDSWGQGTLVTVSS
VL: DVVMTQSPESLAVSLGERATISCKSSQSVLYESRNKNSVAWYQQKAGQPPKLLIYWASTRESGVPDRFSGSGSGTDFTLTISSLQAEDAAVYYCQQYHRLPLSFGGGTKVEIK

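The parent was found by panning a naive human phage display library on the peptide. The variants were designed computationally from a first round of random CDR variants and then made and measured. Several design methods are mixed in this list. The assay is AlphaSeq: two haploid yeast populations carry antibody and antigen on their surface. Binding brings cells together so that they mate, and sequencing counts the barcode pairs among the diploids. Read counts were normalised to the haploid input and turned into Kd by a linear fit to BCL2-family pairs of known affinity, for each replicate. The assay was run in six technical replicates.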

Each variant is given by its three light chain CDRs, as the data file delimits them; those of the parent are KSSQSVLYESRNKNSVA, WASTRES, QQYHRLPLS. Variants here have more than six changes. Affinities are written as log10 Kd with Kd in nM; a lower number is a better binder. An entry "n.d." has no value in the source: the pair was not observed among the diploids in that replicate. This suggests poor binding but is not conclusive. Of ten entries with the parent sequence, four were seen in most replicates (averages 0.34 to 2.37), three in one and three in none, so single entries are noisy.

CDR-L1	CDR-L2	CDR-L3	replicates, log10 nM	empty controls
KLSMITGHMSTAKQNVA	EMVTREN	QQYNRLPLS	0.67 0.40 0.48 0.28 0.49 0.49	0 of 18
MISQLFNMGQFAINSVA	QASTRCE	QQYDRLPLI	2.12 1.28 1.82 1.19 1.65 1.62	0 of 18
KLLQNVMTEGRTRNNVA	HMDMRED	QQYWRLPLS	1.45 0.29 0.49 1.10 0.96 0.70	0 of 18
HLAAMWGLESVKPNNVA	ENSTRED	QQYDRLPLS	n.d. n.d. n.d. n.d. n.d. n.d.	0 of 18
MISDLTMYGMRNVNSVA	DLSTRGS	QQYHRLPLS	0.51 0.47 0.44 0.27 0.21 0.40	0 of 18
MISQLYNMGQFAINSVA	QGSERNN	QQYDRLPLM	1.04 1.01 1.04 1.17 0.71 1.22	1 of 18 (3.09)
MMSQVWGMGQRHMNNVA	QTSTREE	QQYDRLPLI	1.71 0.90 1.26 0.79 0.67 1.10	0 of 18
KLVNFMNRGTHHTSNIA	DAQNRID	QQYFRLPLA	-0.04 0.04 -0.26 0.37 -0.48 0.29	0 of 18
HLNEQLVMDSKNQNHVA	STEQRES	QQYFRLPFT	0.06 0.03 -0.09 -0.09 -0.03 0.09	0 of 18
KVNISPHKQGMHKHGVA	DHDMRVA	QQYDRLPLT	0.67 0.70 0.68 0.88 0.57 0.66	1 of 18 (2.78)
KLLQVTENMMLNRNSVA	HMSTRED	QQYHRLPLS	0.60 0.22 0.65 0.21 0.46 0.54	1 of 18 (2.09)
MISQLMNMGTFAINSVA	QAQLRNE	QQYDRLPLT	n.d. n.d. n.d. n.d. n.d. n.d.	0 of 18
IVSQLMLWGYIAKNSIA	EAEMRLN	QQYERLPLF	n.d. n.d. n.d. n.d. n.d. n.d.	0 of 18
KLSMEHDYESRNKNSVA	QASQREE	QQYHRLPLS	-0.29 -0.45 -0.19 -0.65 -0.45 -0.29	1 of 18 (2.21)
KLLQNVWTEGRNRNNVA	HMDMRED	QQYWRLPLS	0.62 0.14 0.11 0.25 0.36 0.58	1 of 18 (2.48)
TLYGLSNSMSINKNNVA	EMTTREK	QQYDRLPLI	0.94 1.55 1.01 1.09 2.59 1.31	0 of 18
HISYSMEHLSKNKNSVA	NQQTRES	QQYHRLPLS	0.34 0.58 0.36 0.80 0.11 0.70	0 of 18
SLYEAMQTGKLRTSNIA	DVNQQMR	QQYNRLPLM	0.27 0.22 -0.03 0.04 0.13 0.27	1 of 18 (2.83)
TLSQMSGVEAVKHNNVA	ENSTREQ	QQYDRLPLA	n.d. n.d. 2.44 n.d. n.d. n.d.	0 of 18
HVSESVFQMSKMKNSVA	ENSTRES	QQYDRLPLS	2.25 1.95 1.37 3.33 2.20 3.09	0 of 18
MISDLTMYGSRNVNSVA	DLSTRGS	QCYHRLPLS	n.d. 2.16 n.d. n.d. n.d. n.d.	0 of 18
KVGNMVDYMSATHSSVA	QTSTREE	QQYHRLPLS	n.d. 0.74 2.08 1.76 0.74 n.d.	0 of 18
QFSITNNQGHSMEHNIA	EGTYAEE	QQYARLPLQ	n.d. 1.47 0.93 1.75 1.08 1.54	0 of 18
SFTIEGLQQQEQYNSVA	GEQKTVD	QQYGRLPLS	0.26 0.62 0.85 0.39 0.62 0.38	0 of 18
KISCSEYYGDRNKMSVA	DASQRLS	QQYHRLPLS	-0.32 -0.22 -0.53 -0.33 -0.48 -0.10	2 of 18 (3.08)
MISQLYNMGQFAINSVA	QASERNT	QQYDRLPLT	2.14 2.15 1.87 1.45 1.66 1.84	0 of 18
TLYGLSNSMSINKDSVA	EMTTRED	QQYDRLPLA	n.d. 2.97 n.d. 1.34 n.d. 1.80	0 of 18
MISQLMNMGQFAINSVA	QASIRNQ	QQYDRLPLM	2.47 1.39 2.12 3.14 3.08 2.10	0 of 18
KLSFLKGGESRNKNSVA	DAGTRES	QQYHRLPLS	0.06 -0.22 -0.44 -0.36 -0.51 -0.11	1 of 18 (2.22)
MISMMHASQYNESSSIA	NAEATNS	QQYHELPLS	n.d. 1.78 n.d. n.d. n.d. n.d.	2 of 18 (2.25)
KLSNSELYESRQKNSVA	QASQREM	QQYHRLPLS	n.d. n.d. n.d. n.d. n.d. 1.42	0 of 18
KLQFSSGMSQRNKNSVA	SASTRES	QQYHRLPLS	0.07 0.25 0.02 -0.21 -0.20 0.24	1 of 18 (2.43)
ILQQSWGYQSRNKNSVA	NASTREW	QQYHRLPLS	0.90 1.14 0.96 1.20 1.23 0.90	0 of 18
MLSEFMHMLGAKKNSIA	DLVERAN	QQYHRLPLE	0.84 1.03 0.60 0.62 0.66 1.00	1 of 18 (1.31)
NLGGEDFNDTYGMKAVA	DVSEVGE	QHYSRLPLS	0.80 0.70 0.49 0.43 0.97 1.11	2 of 18 (2.57)
NLYQSMNFLGRVMNSIA	DASTIPD	QQYHRLPLS	n.d. n.d. n.d. n.d. n.d. n.d.	0 of 18
KLQSLWLYESRNKNNVA	NASTRYS	QQYHRLPLS	0.04 -0.15 -0.17 -0.34 -0.19 0.02	0 of 18
KISQMQNFESTHINAVA	QMSTREE	QQYFRLPLS	0.44 0.18 0.14 0.14 0.29 0.35	0 of 18
TLYGLSVSMSKNTNNVA	EMTTREK	QQYDRLPLI	1.03 0.92 1.45 0.98 0.93 0.97	3 of 18 (2.41)

The first 4 variants above that were never detected:

CDR-L1	CDR-L2	CDR-L3	replicates, log10 nM	empty controls
HLAAMWGLESVKPNNVA	ENSTRED	QQYDRLPLS	n.d. n.d. n.d. n.d. n.d. n.d.	0 of 18
MISQLMNMGTFAINSVA	QAQLRNE	QQYDRLPLT	n.d. n.d. n.d. n.d. n.d. n.d.	0 of 18
IVSQLMLWGYIAKNSIA	EAEMRLN	QQYERLPLF	n.d. n.d. n.d. n.d. n.d. n.d.	0 of 18
NLYQSMNFLGRVMNSIA	DASTIPD	QQYHRLPLS	n.d. n.d. n.d. n.d. n.d. n.d.	0 of 18

In the paper, a design with two or fewer of six values counts as a poor binder. Nonspecific signal, from three strains lacking the peptide, appeared in 4% of pairings of all light chain designs, centred on 2.64 (5% of these signals below 1.59); values are not corrected for it. The control count says in how many pairings with the empty strains this scFv gave a signal, with their mean in brackets. The range of this assay differs from that of the first round, and the authors advise against merging the two.

Reference: Li et al. 2023, doi:10.1038/s41467-023-39022-2. File: FLAb, binding data.